The test has as its target Human immunodeficiency virus type 1 protease (Human immunodeficiency virus 1, UniProt Q72874). The experiment in a line: Inhibition of HIV-1 protease.

Consider `CC(C)(C)NC(=O)[C@@H]1C[C@@H]2CCCC[C@@H]2CN1C[C@@H](O)[C@H](Cc1ccccc1)NC(=O)O[C@H]1CCOC1`, for which the half-inhibitory concentration (IC50) (as a rule, the concentration that gives 50% inhibition) worked out at 160 nM. This counts as sub-micromolar. `CC(C)(C)NC(=O)[C@@H]1C[C@@H]2CCCC[C@@H]2CN1C[C@@H](O)[C@H](Cc1ccccc1)NC(=O)O[C@@H]1CCOC1` showed an IC50 of 694 nM.

For the origin of these results see ChEMBL document CHEMBL1127030, “3-Tetrahydrofuran and pyran urethanes as high-affinity P2-ligands for HIV-1 protease inhibitors” (J Med Chem, 1993).
